Source: patent US7495023B2, “Thio semicarbazone and semicarbozone inhibitors of cysteine proteases and methods of their use” (The Regents of the University of California, priority 2002, dated 2009)

Chains of the proteins cited; added tags and fusions are not shown. Residues count along the entry.
UniProt P25779, 123-467: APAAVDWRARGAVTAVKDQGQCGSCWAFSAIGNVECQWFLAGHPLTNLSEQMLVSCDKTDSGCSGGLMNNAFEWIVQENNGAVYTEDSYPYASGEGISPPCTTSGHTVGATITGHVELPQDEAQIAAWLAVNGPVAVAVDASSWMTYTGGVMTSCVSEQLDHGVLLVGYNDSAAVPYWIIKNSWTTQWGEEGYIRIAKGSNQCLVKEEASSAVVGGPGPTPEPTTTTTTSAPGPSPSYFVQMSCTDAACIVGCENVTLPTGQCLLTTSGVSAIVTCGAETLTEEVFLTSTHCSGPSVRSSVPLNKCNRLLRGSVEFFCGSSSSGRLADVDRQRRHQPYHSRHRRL

Molecular target: T. cruzi cathepsin L-like protease (cruzain) (Trypanosoma cruzi, UniProt P25779)
Experiment: biochemical
Conditions: 5 min incubation, room temperature, pH 5.50; read-out: IC50 against cruzain
Method: IC50 Determinations. Inhibitors were screened for effectiveness against the T. cruzi cathepsin L-like protease (cruzain) using purified recombinant protein. Cruzain (1 nM) was incubated with 20-50000 nM inhibitor in 100 mM sodium acetate-5 mM DTT buffer (pH 5.50, buffer A) for 5 min at room temperature. […] The increase in fluorescence (excitation at 355 nm and emission at 460 nm) was followed with an automated microtiter plate spectrofluorimeter (Molecular Devices, spectraMAX Gemini). Inhibitor stock solutions were prepared at 20 mM in DMSO, and serial dilutions were made in DMSO (0.7% DMSO in assay). Controls were performed using enzyme alone and enzyme with DMSO. IC50 values were determined graphically using inhibitor concentrations in the linear portion of a plot of inhibition versus log [I] (seven concentrations were tested, and at least two were in the linear range).

IC50: 100 nM
SMILES: CCC(=NNC(N)=S)c1cccc(Br)c1 [Compound 1i, 3′-Bromopropiophenone Thio Semicarbazone]
